scFv variants of Ab-14 (light chain) against a SARS-CoV-2 spike peptide

Source: Engelhart et al. 2022 (doi:10.1038/s41597-022-01779-4), MIT Lincoln Laboratory and A-Alpha Bio; data file from the FLAb repository.

Target peptide (SARS-CoV-2 spike, HR2 region): PDVDLGDISGINAS

Each scFv is VH, three GGGGS repeats, VL, as in the parent Ab-14, and differs from it in the CDRs of the light chain only.
VH: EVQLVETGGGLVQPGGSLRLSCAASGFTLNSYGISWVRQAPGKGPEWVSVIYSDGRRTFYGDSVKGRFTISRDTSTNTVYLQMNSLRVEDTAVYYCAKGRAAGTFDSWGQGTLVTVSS
VL: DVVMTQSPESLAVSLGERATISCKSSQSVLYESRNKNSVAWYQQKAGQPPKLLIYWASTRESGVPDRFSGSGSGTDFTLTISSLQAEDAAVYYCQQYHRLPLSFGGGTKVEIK

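The starting antibody came from a phage panning campaign against this peptide. Variants in AAYL50 differ from the parent at up to three CDR positions; double and triple changes were sampled at random. AlphaSeq pools MATa yeast showing the antibodies with MATalpha yeast showing the peptide. Binding brings cells together so that they mate, and sequencing counts the barcode pairs among the diploids. A regression on co-assayed BCL2-family reference pairs converts the normalised counts of each replicate to an apparent Kd. There are three technical replicates.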

The parent's light chain CDRs are KSSQSVLYESRNKNSVA, WASTRES, QQYHRLPLS; each variant's own CDRs replace them letter for letter.
Every variant below is changed at T59 of the VL (sequential numbering).
Values are apparent Kd, the geometric mean of the replicates that gave a signal; lower means stronger binding.
"no signal" marks a missing value. The strain was present, yet no cells mated with the target were sequenced in any replicate, which points to weak or no binding.
Parent in this assay: reference entry 4.4 nM, copy in this library 48 nM.
Nonspecific signal, from three strains lacking the peptide, appeared in 18% of pairings of library AAYL50, centred on 15 µM (5% of these signals below 970 nM); values are not corrected for it.

The variant KSHQSVLYESRNKNSVA, WASIRES, QQYLRLPLS gave 100 nM (3 of 3 replicates).
The variant KSSQSVLYESENKNSVA, WASWRES, QQYHRLALS gave 190 nM (3 of 3 replicates).
The variant KSSFSVLYESPNKNSVA, WASARES, QQYHRLPLS gave 7.7 nM (3 of 3 replicates).
The variant KSSQSVLYESRNKNSVA, WASCRES, QQYHRLPLS gave 13 nM (3 of 3 replicates).
The variant KSSQSVLDESRNKNSVA, WASCRES, QQYHRLPRS gave 4.5 nM (3 of 3 replicates).
The variant KSSQSVLYENRNKNSVA, WASVRES, QQYHRLPLS gave 12 nM (3 of 3 replicates).
The variant VSSQSVLYESRNKNSVA, MASARES, QQYHRLPLS gave 22 nM (3 of 3 replicates).
The variant KSSQSALYESRNKNSVA, LASERES, QQYHRLPLS gave 6.2 nM (3 of 3 replicates).
The variant KSSQSVLYESRTKNSVA, WASIRES, QQTHRLPLS gave 53 µM (2 of 3 replicates).
The variant KSSQSVLYESRNKMSVH, WASYRES, QQYHRLPLS gave no signal (0 of 3 replicates).
The variant KSSQSVLYEFRNKNSVA, WDSDRES, QQYHRLPLS gave 1.1 µM (1 of 3 replicates).
The variant KSSQSVLYESRHKNSVA, MASCRES, QQYHRLPLS gave 6.0 nM (3 of 3 replicates).
The variant KSSQSFLYSSRNKNSVA, WASKRES, QQYHRLPLS gave 64 nM (3 of 3 replicates).
The variant KSSQSVLYESRNKNSVA, WASPWES, QQYHRRPLS gave no signal (0 of 3 replicates).
The variant KLSQSVLYESMNKNSVA, WASLRES, QQYHRLPLS gave 1.7 nM (3 of 3 replicates).
The variant KSSQSVLWESRNKNSVA, WDSHRES, QQYHRLPLS gave 550 nM (3 of 3 replicates).
The variant KSSQSVLYESRNKNSVA, WASVRES, QQYHRLDLI gave no signal (0 of 3 replicates).
The variant KSSQSVLYESRNKNSWA, WASEREA, QQYHRLPLS gave no signal (0 of 3 replicates).
The variant KSSQSVLYESRNHNSVA, WRSPRES, QQYHRLPLS gave 67 nM (3 of 3 replicates).
The variant KSSQSALYESRNKNSVA, WASKRES, QQKHRLPLS gave no signal (0 of 3 replicates).
The variant KSSQSVLYESRNKASVA, WASDRES, FQYHRLPLS gave no signal (0 of 3 replicates).
The variant KSSQSVLYESNNKNSVA, IASYRES, QQYHRLPLS gave 33 µM (1 of 3 replicates).
The variant KSSQSVLYESRNKPSVA, WASKPES, QQYHRLPLS gave 15 µM (1 of 3 replicates).
The variant KSSQSKLYESRNKNSVA, WASFRES, QQYMRLPLS gave 9.1 nM (3 of 3 replicates).
The variant KSYQSVLYESRNKNSVA, WASIRES, QQYHRLMLS gave 16 nM (3 of 3 replicates).
The variant KSSQSVLYESRNKNVVA, WASGRES, QQYHVLPLS gave 9.0 µM (1 of 3 replicates).
The variant KSSQSTLYESRNKNSVA, WASEHES, QQYHRLPLS gave no signal (0 of 3 replicates).
The variant KSSQSVLYESRNKNSVH, WTSIRES, QQYHRLPLS gave 6.5 µM (1 of 3 replicates).
The variant KSSQSVLYESRNKNSVA, VASERES, QQYDRLPLS gave 1.7 µM (3 of 3 replicates).
The variant KSSQSVLYESRNKNSVA, WASVRWS, QQYHRLFLS gave 36 µM (2 of 3 replicates).
The variant KSSQSVLYESRNKNSVA, WAWRRES, QQYHRLPLS gave 4.7 µM (1 of 3 replicates).
The variant KSSQSVLYESRDKNSVA, WASPRES, QVYHRLPLS gave no signal (0 of 3 replicates).
The variant KSSQSVLYESRNKNSVA, WAVERES, QQYHRLSLS gave no signal (0 of 3 replicates).
The variant KSSQSVVYESRPKNSVA, WASERES, QQYHRLPLS gave no signal (0 of 3 replicates).
The variant KSCQSVLYESRNKNSVA, WASFRES, QQYHRLPLS gave 340 nM (3 of 3 replicates).
The variant KSSQSVLYESRNKNGVA, WASERES, QQYHRLPLS gave 16 nM (3 of 3 replicates).
The variant VSSQSVLYESRNKNSVQ, WASHRES, QQYHRLPLS gave no signal (0 of 3 replicates).
The variant KSSQSVDYESRNKNSQA, WASMRES, QQYHRLPLS gave no signal (0 of 3 replicates).
The variant KSSQSVLYRSRNKNSVA, WASCRES, LQYHRLPLS gave 19 µM (2 of 3 replicates).
The variant KSSQSVLYESRNKNSMA, WASRRES, QQYHRLPGS gave no signal (0 of 3 replicates).
The variant KSSQSVLYESRNKNSVA, WASERES, QQYHRLPLS gave 65 µM (1 of 3 replicates).
The variant KSSQSVLYEFRNKNSVA, WASFRES, QQYHRLPLS gave no signal (0 of 3 replicates).
The variant KKSQSVLYESRNKNSVA, WASGRES, QQYHRLKLS gave no signal (0 of 3 replicates).
The variant KSSQSVLYESRNKNSVA, WASRWES, QQYHFLPLS gave 34 µM (2 of 3 replicates).
The variant KSSQSVLYESRNKNSVA, WASNWES, DQYHRLPLS gave 78 µM (3 of 3 replicates).
The variant KSSQSVLYESRNKNSVA, WANWRES, QQYHWLPLS gave 4.1 µM (3 of 3 replicates).
The variant KSSQSVLYESRNKNSVA, WASWRES, QQYHRLPLG gave no signal (0 of 3 replicates).
The variant KSSQSVLYESRNKNSFA, WASKRES, QQYHRLPLS gave no signal (0 of 3 replicates).
The variant KSSQSVLYESRNKNSVA, WALDRES, QNYHRLPLS gave 280 nM (2 of 3 replicates).

4 of these entries, quoted again:

| CDR-L1 | CDR-L2 | CDR-L3 | apparent Kd | seen in |
|---|---|---|---|---|
| KSSQSALYESRNKNSVA | LASERES | QQYHRLPLS | 6.2 nM | 3 of 3 |
| KSHQSVLYESRNKNSVA | WASIRES | QQYLRLPLS | 100 nM | 3 of 3 |
| VSSQSVLYESRNKNSVA | MASARES | QQYHRLPLS | 22 nM | 3 of 3 |
| KSCQSVLYESRNKNSVA | WASFRES | QQYHRLPLS | 340 nM | 3 of 3 |